# Test results taken from PMC3365014 (PLoS ONE, 2012).
# B1: Wmot2(266–280), fluorescein-labeled (peptide)
# peptide: WSTNGDTFLGGEDFDQ
# modifications: fluorescein (5(6)-carboxyfluorescein) on the N-terminus; C-terminal amide
# notes: single tryptophan added at the N-terminus; Mortalin-2 (hsp70 family member), residues 266–280; source: synthetic peptide (Fmoc, HPLC-purified)
# B2: PKCα(281–295), peptide on the array (peptide)
# peptide: EEGEYYNVPIPEGDE
# notes: Immobilised on the array; source: bought: Intavis Celluspots peptide array
# Legend:
# [1] = target: T1, p53 C-terminal domain (p53CTD, residues 293–393) (UniProt P04637 293-393); assay: fluorescence polarisation; fluorescence anisotropy; p53CTD titrated into 100 nM fluorescein-labeled peptide; 20 mM sodium phosphate pH 7.2, 13.5 mM NaCl, 10°C; 5 mM β-mercaptoethanol for peptides with cysteine; single-site 1:1 model; Kd in µM tetramer; details: both partners purified
# T1 construct: p53 C-terminal domain, residues 293–393; 15N-labeled for NMR; also called p53(293–393); full length p53CTD; source: E. coli (C41 for the 15N-labeled protein), purified as described [23]
# [2] = target: T1, p53 C-terminal domain (p53CTD, residues …); assay: peptide or protein array; Celluspots peptide array, peptides immobilised; 20 µM p53CTD in 1% milk in TBS-T (50 mM Tris pH 7.5, 110 mM NaCl, 0.05% Tween 20), overnight at 4°C; detected with FL-393 anti-p53 antibody; details: both partners purified
Binder,Kd [1] [µM],binding result [2]
B1,41,–
B2,–,binds
